Measurements as given in ChEMBL document CHEMBL4145543, “Synthesis and pharmacological evaluation of 6,7-dimethoxy-1,2,3,4-tetrahydroisoquinoline derivatives as sigma-2 receptor ligands” (Eur J Med Chem, 2018).

Chains of the proteins cited; added tags and fusions are not shown.
UniProt Q5BJF2, whole entry: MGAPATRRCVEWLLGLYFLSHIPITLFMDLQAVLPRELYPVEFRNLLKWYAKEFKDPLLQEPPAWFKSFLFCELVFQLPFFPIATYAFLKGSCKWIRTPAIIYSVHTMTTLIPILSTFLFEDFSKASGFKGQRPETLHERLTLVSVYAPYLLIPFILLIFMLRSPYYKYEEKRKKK

Target: Sigma intracellular receptor 2 (Homo sapiens, UniProt Q5BJF2)
Assay: Binding affinity to sigma-2 receptor (unknown origin)
Method in brief: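 Rat liver membrane homogenate (male Sprague-Dawley, 300-350 g; 300 µg) incubated with 5.65 nM [3H]DTG stock (~82 Ci/mmol) plus (+)-pentazocine (100 nM stock) masking sigma-1, 50 mM Tris-HCl pH 8.0, 25 °C, 120 min. Compounds from ethanol, 0.1-1000 nM, 10 points. Ice-cold 10 mM Tris termination, GF/B filtration, scintillation counting. Nonspecific: 5 µM DTG. IC50 by nonlinear regression, Ki via Cheng-Prusoff; ≥3 experiments, mean (SEM).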

Ki: 0.34 nM
Compound: COc1cccc2c1CCCC2CCCN1CCN(C2CCCCC2)CC1 (stereo unspecified)
